Source: patent publication US20060159676A1, “Methods for modulating angiogenesis, lymphangiogenesis, and apoptosis with apelin compositions” (priority 2005, published 2006)

Tested on: developing blood vessels
Test: Apelin-soaked bead implantation in frog embryos, vascular outgrowth by erg in situ hybridization
Settings: beads soaked in apelin 0.1 mg/ml, mutated apelin 0.25 mg/ml, BSA 1 mg/ml or rm VEGF-164 0.25 mg/ml; implanted stage 24-26, assayed stage 35-37
Procedure: Beads were microsurgically implanted in an avascular region, the posterior lateral mesoderm, of stage 24-26 embryos. Embryos were cultured in 0.2× MMR until stage 35-37, at which time they were prepared for whole mount in situ hybridization analysis as described in Example 2. The embryonic vascular system was visualized using an antisense probe directed against transcripts encoding the Xenopus vascular marker, erg (Baltzinger et al., 1999, Dev. Dyn. 216:420-33).

Substance	vascular outgrowth toward implanted beads
VEGF	nearly identical outgrowth of developing blood vessels
Apelin-13	outgrowth of developing blood vessels toward the apelin-soaked beads
